Reference: US20080176810A1, “Use of 3, 4', 5-Trihydroxy-Stilbene-3-Beta-D-glucoside in Prepartion of Medicines For Treating and/or Preventing Ischemic Heart Disease” (SHENZHEN NEPTUNUS PHARMACEUTICAL CO., LTD., priority 2004, published 2008)

Assay: Pharmacokinetics of single-dose iv in Beagle dogs;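 note: plasma levels in healthy adult Beagle dogs, five per dose group, after slow forelimb iv injection over 5 min, parameters from non-compartmental statistical moment analysis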
Details: 30 mg/kg iv

For “3,4′,5-trihydroxy-stilbene-3-β-D-glucoside [TSG]”, the “maximum concentration in plasma” value was “around 0.25 mmol/L”.
